# Source: PMC8353992 (Journal of medicinal chemistry, 2021)
# Key:
# [1] = tested on: infectious SARS-CoV-2 virus in Vero E6 cells; format: cell-based
# [2] = tested on: infectious SARS-CoV-2 virus in Vero E6 cells; format: cell-based; remark: listed apart in the source
smiles,measurement,setting,value
"O=C(Cn1nnc2ccccc21)N(Cc1cccc(Cl)c1)c1ccc(-c2c[nH]cn2)cc1 [Compound 41, N-(4-(1H-Imidazol-4-yl)phenyl)-2-(1H-benzo[d][1,2,3]triazol-1-yl)-N-(3-chlorobenzyl)acetamide]",Plaque Reduction Assay EC50,[1],sub-micromolar
same,CPE Inhibition Assay EC50,[2],sub-micromolar
